Source: patent US7049327B2, “Substituted dimethyl-[1-(1-phenyl-cyclohexyl)-piperidin-3-ylmethyl]-amines and the use of the same as analgesics” (dated 2006)

Experiments:
[1] = tested on: formalin-induced nociceptive reaction (licking and biting of the paw) in mice; assay: Formalin test in mice, second (late) phase; settings: male NMRI mice, 5 min before formalin (20 μl, 1% s.c.), 21st to 24th minute
[2] = tested on: phenylquinone-induced writhing reactions in mice; assay: Phenylquinone-induced writhing test in mice; settings: male mice, 10 min before phenylquinone i.p., writhing counted 5 to 20 min after phenylquinone

SMILES | % inhibition relative to control 10 mg/kg i.v. [1] | % inhibition of the writhing reactions 10 mg/kg i.v. [2]
COc1cccc(C2(O)CCN(C3(c4ccccc4)CCCCC3)CC2CN(C)C)c1.Cl.Cl (centres unmarked) | 55% | 54%
CN(C)CC1CN(C2(c3ccccc3)CCCCC2)CCC1(O)c1cccc(Cl)c1.Cl.Cl (centres unmarked) |  | 40%
CN(C)CC1CN(C2(c3ccccc3)CCCCC2)CCC1(O)Cc1ccccc1.Cl.Cl (centres unmarked) |  | 35%
CN(C)CC1CN(C2(c3ccccc3)CCCCC2)CCC1(C)O.Cl.Cl (centres unmarked) |  | 33%
CCCCCCCCC1(O)CCN(C2(c3ccccc3)CCCCC2)CC1CN(C)C.Cl.Cl (centres unmarked) |  | 31%
CN(C)CC1CN(C2(c3ccccc3)CCCCC2)CCC1(O)c1cccc(O)c1.Cl.Cl (centres unmarked) | 59% | 73%
